Binding of CDR-mutated scFvs to a peptide of the spike HR2 region

Values reported by Engelhart et al. 2022, doi:10.1038/s41597-022-01779-4 (FLAb copy).

Target peptide (SARS-CoV-2 spike, HR2 region): PDVDLGDISGINAS

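The starting antibody came from a phage panning campaign against this peptide. In library AAYL50, one, two or three CDR residues were substituted; doubles and triples were drawn at random. AlphaSeq pools MATa yeast showing the antibodies with MATalpha yeast showing the peptide. Pairs that bind mate more often; barcode pairs of the diploids are counted by sequencing. The ratio of observed to expected reads was calibrated, replicate by replicate, on BCL2-family standards whose Kd was known from biolayer interferometry. Each pool was mated in three replicate cultures.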

Ab-14 is the parent antibody, in scFv form: VH, then a 15-residue (Gly4Ser)3 linker, then VL. The heavy chain is unchanged in all variants.
VH: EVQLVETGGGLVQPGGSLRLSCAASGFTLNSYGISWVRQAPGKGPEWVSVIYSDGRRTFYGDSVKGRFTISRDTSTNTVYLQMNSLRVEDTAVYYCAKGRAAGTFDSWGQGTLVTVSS
VL: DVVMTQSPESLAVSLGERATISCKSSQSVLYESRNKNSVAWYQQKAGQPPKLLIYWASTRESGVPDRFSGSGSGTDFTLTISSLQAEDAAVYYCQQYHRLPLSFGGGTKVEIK

The parent's light chain CDRs are KSSQSVLYESRNKNSVA, WASTRES, QQYHRLPLS; each variant's own CDRs replace them letter for letter.
This list gathers variants with a substitution at K36 (VL, numbered from residue 1).
The read-out is the apparent dissociation constant on a log10 scale (nM): the lower, the stronger.
Averages over replicates are reported, and they cover detected replicates only.
An entry "ND" has no value in the source: the pair was not observed among the diploids in that replicate. This suggests poor binding but is not conclusive.
Entries are sorted by rising average, undetected variants last.

The variant KSSQSVLYESRNLNSVA | WASTRES | QQVHRLPLS showed 0.20, 0.53, 0.49 (mean 0.41; controls 5 of 9). The variant KSSQSVLYGSRNHNSVA | WASTRES | QQYHRLPAS gave 0.30, 0.70, 0.48 (mean 0.50; controls 0 of 9). The variant KSSQSVLYESRNENSVA | WASTRES | QQYHALPLS gave 0.40, 0.75, 0.62 (mean 0.59; controls 0 of 9). For KSSQSVLYESRNVNSVA | WASTRES | QQYHRLPMS, the assay gave 0.58, 0.76, 0.73 (mean 0.69; controls 1 of 9). The variant KSSQSVLYESRNVNSVA | WASTRES | QQYHRLPLR gave 0.62, 0.85, 0.94 (mean 0.80; controls 2 of 9).

With KTSQSVLYESRNDNSVA | GASTRES | QQYHRLPLS the result was 0.74, 0.93, 0.86 (mean 0.85; controls 5 of 9). The variant KDSQSVKYESRNDNSVA | WASTRES | QQYHRLPLS showed 0.82, 1.07, 0.95 (mean 0.95; controls 0 of 9). The variant KSSQSVLYESRNRNSVA | WASTRES | QQYAYLPLS gave 1.02, 1.39, 0.76 (mean 1.06; controls 0 of 9). For KSSQSVLYESRNLNSVA | WMSTRES | QQYHRQPLS, the assay gave 1.20, 1.22, 1.32 (mean 1.25; controls 2 of 9). For KSSQSVLYESRNLNSVA | WASTPES | QQYPRLPLS, the assay gave 1.27, 1.26, 1.39 (mean 1.30; controls 2 of 9).

The variant KSSQSVLYEQRNENSVA | WASTRES | QQYHELPLS gave 1.37, 1.40, 1.26 (mean 1.34; controls 6 of 9). With MSSQSVLYESRNINSVA | WASTRES | QQYHMLPLS the result was 1.28, 1.53, 1.47 (mean 1.43; controls 1 of 9). The variant KSSQSVLYESRNYNSVA | WASTRES | QQYHRKPLS gave 1.38, 1.63, 1.53 (mean 1.51; controls 2 of 9). For KSSQSLLYESRNWNSVA | WASTREQ | QQYHRLPLS, the assay gave 1.70, 1.82, 1.95 (mean 1.82; controls 1 of 9). For KSSQSVLYESRNQNTVA | RASTRES | QQYHRLPLS, the assay gave 1.77, 1.96, 2.00 (mean 1.91; controls 3 of 9).

With KSSQSVLYESRKWNSVA | WASTRES | QQYHRLPDS the result was 2.12, 1.75, 1.97 (mean 1.95; controls 4 of 9). With KNSQSVLYESRNQNSVA | WASTREQ | QQYHRLPLS the result was 1.96, 2.11, 2.06 (mean 2.04; controls 1 of 9). The variant ISSGSVLYESRNFNSVA | WASTRES | QQYHRLPLS showed 2.02, 2.13, 2.18 (mean 2.11; controls 0 of 9). The variant KSSQSVKYESRNRNSVA | WASTRES | QHYHRLPLS gave 2.32, 2.07, 2.10 (mean 2.16; controls 5 of 9). The variant KSSQSVLYESRNNNSVA | WASTRDS | QQYHRLPLS gave ND, ND, 2.27 (controls 0 of 9).

For KSSQSVLYESRNDNSVA | WANTRES | QQYHRLPYS, the assay gave 2.32, 2.20, 2.33 (mean 2.28; controls 0 of 9). For KSSQSVLYESRNHNSVA | WASTRES | QQYHRLPLC, the assay gave 2.69, 2.06, 2.14 (mean 2.29; controls 0 of 9). With KSSWSVLYEMRNMNSVA | WASTRES | QQYHRLPLS the result was 2.59, 2.72, 2.43 (mean 2.58; controls 0 of 9). With KSSQSVLYESENWNSVA | WASTRES | QQYHRLPLW the result was 2.30, 2.72, 2.98 (mean 2.67; controls 1 of 9). The variant KSSQSVLYYSRNNNYVA | WASTRES | QQYHRLPLS showed 2.91, 3.44, 3.07 (mean 3.14; controls 1 of 9).

For KSSQKVLYESRNTNSVA | WASTRES | QQYHRYPLS, the assay gave 3.10, 3.20, 3.15 (mean 3.15; controls 1 of 9). The variant KSSQSVHYESRNLNSVA | WASTQES | QQYHRLPLS showed 3.57, 3.62, 3.76 (mean 3.65; controls 4 of 9). The variant KSSQSVLYESRNCNSVA | WAHTRES | QQQHRLPLS gave ND, 3.76, ND (controls 0 of 9). For TSSQSVLYESRNTNSVA | WASTNES | QQYHRLPLS, the assay gave ND, ND, 3.78 (controls 3 of 9). The variant KSSQSVLYESRNSNSVI | WARTRES | QQYHRLPLS gave 4.46, 3.45, 5.26 (mean 4.39; controls 8 of 9).

With KSSQSVLYESRNHNSVA | WATTQES | QQYHRLPLS the result was ND, 4.58, 4.60 (mean 4.59; controls 5 of 9). The variant KSSQSVLYESRNGNDVA | WASTRES | QQYHRQPLS gave ND, 4.42, 4.96 (mean 4.69; controls 4 of 9). With KSSQSVLQESRNWNSVA | WASTRES | QQYHRLPLS the result was 6.21, 3.27, ND (mean 4.74; controls 5 of 9). The variant KSSQSMLYESRNLNSPA | WASTRES | QQYHRLPLS showed 4.15, 5.32, 5.01 (mean 4.83; controls 3 of 9). The variant KSSPSVLYESRNTNSVA | WAPTRES | QQYHRLPLS showed 5.82, ND, ND (controls 4 of 9).

The variant KSSQSCLYESRNTNSVA | WASTRES | QQYHREPLS showed ND, ND, ND (controls 1 of 9). For KSSQSVLYESRNLNSVA | WASTRES | QQEHRLPLS, the assay gave ND, ND, ND (controls 0 of 9). With KSSQSVLYEFRNVNSVA | WAPTRES | QQYHRLPLS the result was ND, ND, ND (controls 3 of 9). The variant KSSQSVLYESRNPNSGA | WASTREF | QQYHRLPLS gave ND, ND, ND (controls 1 of 9). For KSSQSVLYESRNVNSYA | WASTRES | QQYHRLPLS, the assay gave ND, ND, ND (controls 2 of 9).

The variant KSPQSVLYESRNGNSVA | WASTRES | LQYHRLPLS showed ND, ND, ND (controls 2 of 9). The variant KSSQSVLYESRNMNSVF | WASTREL | QQYHRLPLS gave ND, ND, ND (controls 4 of 9). With KSSQSVLYESRNTNSVA | WASTRVS | QQYHRLPLS the result was ND, ND, ND (controls 3 of 9). For KSSQSVLYESPNQNSVA | WASTRES | PQYHRLPLS, the assay gave ND, ND, ND (controls 2 of 9). For KSSQYVLYEMRNCNSVA | WASTRES | QQYHRLPLS, the assay gave ND, ND, ND (controls 0 of 9).

For KSSQSVLYESRNQNSVA | WASTRES | QQAHRHPLS, the assay gave ND, ND, ND (controls 2 of 9). With KSSQSVLYEERNLNSVA | WASTRES | QQYRRLPLS the result was ND, ND, ND (controls 0 of 9). The variant KSSQSVLYESRNYNSVG | WASTYES | QQYHRLPLS gave ND, ND, ND (controls 1 of 9).

The 8 strongest on average among those seen in every replicate, once more:

With KSSQSVLYESRNLNSVA | WASTRES | QQVHRLPLS the result was 0.20, 0.53, 0.49 (mean 0.41; controls 5 of 9).
With KSSQSVLYGSRNHNSVA | WASTRES | QQYHRLPAS the result was 0.30, 0.70, 0.48 (mean 0.50; controls 0 of 9).
With KSSQSVLYESRNENSVA | WASTRES | QQYHALPLS the result was 0.40, 0.75, 0.62 (mean 0.59; controls 0 of 9).
With KSSQSVLYESRNVNSVA | WASTRES | QQYHRLPMS the result was 0.58, 0.76, 0.73 (mean 0.69; controls 1 of 9).
With KSSQSVLYESRNVNSVA | WASTRES | QQYHRLPLR the result was 0.62, 0.85, 0.94 (mean 0.80; controls 2 of 9).
With KTSQSVLYESRNDNSVA | GASTRES | QQYHRLPLS the result was 0.74, 0.93, 0.86 (mean 0.85; controls 5 of 9).
With KDSQSVKYESRNDNSVA | WASTRES | QQYHRLPLS the result was 0.82, 1.07, 0.95 (mean 0.95; controls 0 of 9).
With KSSQSVLYESRNRNSVA | WASTRES | QQYAYLPLS the result was 1.02, 1.39, 0.76 (mean 1.06; controls 0 of 9).

Empty control strains, which show no peptide, gave a signal in 18% of pairings with library AAYL50; the median was 4.19 and 95% of these signals were weaker than 2.99. No background was subtracted. The control count says in how many pairings with the empty strains this scFv gave a signal.
In this assay the parent's reference entry averaged 0.65; its copy inside this library read 1.68.